Source: patent US10669252B2, “Benzazepine derivative, preparation method, pharmaceutical composition and use thereof” (SHANGHAI DE NOVO PHARMATECH CO., LTD., priority 2016, dated 2020)

Protein sequences, listed by entry. Tags and fused reporters are not part of them. Residues count along the entry.
UniProt Q9NR97, 27-1041 limits assumed: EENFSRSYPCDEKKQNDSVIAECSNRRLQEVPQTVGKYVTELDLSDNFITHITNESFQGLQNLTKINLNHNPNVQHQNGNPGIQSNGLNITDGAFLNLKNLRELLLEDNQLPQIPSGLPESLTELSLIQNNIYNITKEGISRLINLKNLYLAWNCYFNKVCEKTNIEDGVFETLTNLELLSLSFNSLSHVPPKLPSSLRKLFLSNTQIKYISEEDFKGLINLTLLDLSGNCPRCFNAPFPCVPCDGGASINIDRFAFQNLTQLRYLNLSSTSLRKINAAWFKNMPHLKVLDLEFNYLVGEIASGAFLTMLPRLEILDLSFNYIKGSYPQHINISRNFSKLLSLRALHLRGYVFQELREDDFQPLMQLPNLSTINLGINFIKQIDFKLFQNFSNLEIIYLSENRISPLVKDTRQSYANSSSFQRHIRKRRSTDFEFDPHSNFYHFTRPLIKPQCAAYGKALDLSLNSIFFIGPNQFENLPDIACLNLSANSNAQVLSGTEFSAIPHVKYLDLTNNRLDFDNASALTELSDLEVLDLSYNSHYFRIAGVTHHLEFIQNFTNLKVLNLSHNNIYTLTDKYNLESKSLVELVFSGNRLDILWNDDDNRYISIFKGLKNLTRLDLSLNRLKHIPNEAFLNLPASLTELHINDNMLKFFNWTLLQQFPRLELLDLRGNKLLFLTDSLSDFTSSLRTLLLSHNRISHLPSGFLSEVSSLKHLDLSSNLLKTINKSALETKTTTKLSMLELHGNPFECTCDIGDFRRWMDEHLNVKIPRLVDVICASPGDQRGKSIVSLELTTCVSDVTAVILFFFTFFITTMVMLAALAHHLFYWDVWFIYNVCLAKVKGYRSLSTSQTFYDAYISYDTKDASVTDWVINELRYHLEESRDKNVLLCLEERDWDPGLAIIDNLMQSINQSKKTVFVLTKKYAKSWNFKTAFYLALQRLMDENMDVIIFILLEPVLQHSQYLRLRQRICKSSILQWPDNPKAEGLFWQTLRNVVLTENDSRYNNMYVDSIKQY
UniProt Q9NYK1, 27-1049 limits assumed: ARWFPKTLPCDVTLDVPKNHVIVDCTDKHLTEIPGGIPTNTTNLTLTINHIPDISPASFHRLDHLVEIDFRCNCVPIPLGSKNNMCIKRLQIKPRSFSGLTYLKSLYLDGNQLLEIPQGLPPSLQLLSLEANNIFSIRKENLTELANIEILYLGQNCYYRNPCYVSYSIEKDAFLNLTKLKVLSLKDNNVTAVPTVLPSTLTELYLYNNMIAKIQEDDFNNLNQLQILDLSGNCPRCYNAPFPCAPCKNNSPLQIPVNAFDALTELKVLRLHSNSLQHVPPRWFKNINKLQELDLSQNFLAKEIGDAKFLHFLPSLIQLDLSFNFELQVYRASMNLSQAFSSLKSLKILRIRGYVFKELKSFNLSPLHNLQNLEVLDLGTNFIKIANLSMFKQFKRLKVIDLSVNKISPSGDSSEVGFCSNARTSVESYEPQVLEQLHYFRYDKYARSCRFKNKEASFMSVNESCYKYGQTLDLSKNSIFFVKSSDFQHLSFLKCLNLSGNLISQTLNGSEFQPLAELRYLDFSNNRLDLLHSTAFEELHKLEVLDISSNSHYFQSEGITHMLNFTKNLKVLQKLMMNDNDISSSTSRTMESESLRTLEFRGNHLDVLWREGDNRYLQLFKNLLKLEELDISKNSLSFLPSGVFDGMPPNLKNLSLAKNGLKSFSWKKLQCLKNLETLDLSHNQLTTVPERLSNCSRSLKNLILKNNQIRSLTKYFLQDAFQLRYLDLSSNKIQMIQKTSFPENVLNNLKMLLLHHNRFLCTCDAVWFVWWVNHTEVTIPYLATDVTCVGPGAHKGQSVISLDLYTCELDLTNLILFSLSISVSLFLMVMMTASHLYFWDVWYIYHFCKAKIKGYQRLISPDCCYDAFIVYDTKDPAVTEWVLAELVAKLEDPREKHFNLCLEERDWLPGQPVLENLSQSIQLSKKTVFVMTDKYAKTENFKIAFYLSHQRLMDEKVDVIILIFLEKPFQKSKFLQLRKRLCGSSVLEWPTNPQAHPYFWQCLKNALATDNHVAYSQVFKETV

Molecular target: TLR8 (Homo sapiens, UniProt Q9NR97)
Experiment: TLR8 cell based assay (HEK-BLUE-hTLR8, SEAP reporter linked to NF-κB activation)
Conditions: read-out: TLR8 EC50; HEK-BLUE-hTLR8 cells, 24 h treatment, SEAP/QUANTI-Blue readout
Description: (§1) In this assay, the bioactivity of compound of formula Iw as measured using a cell based assay. The assay was performed in human embryonic kidney cells (HEK293) expressing TLR8 or other TLR family members such as TLR4, TLR7 and TLR9 (for selectivity screens). The activity of specific TLR agonists was assessed using the secretory embryonic alkaline phosphatase (SEAP) reporter gene that is linked to NF-κB activation in response to TLR stimulation. The SEAP activity was measured using the Quanti-Blue substrate (InvivoGen) after TLR agonist treatment.
(§2) The detailed experimental method is as follow:
HEK-BLUE-hTLR8 cell line was purchased from InvivoGen. The cells were cultured in Dulbecco's Modified Eagle's Media containing 4.5 g/L […] (Sigma-Aldrich) and 10% FBS. The cells were cultured at 37° C., 95% humidity and 5% CO2.
Test concentrations of the compounds ranged from 0.5 nM to 15 μM with 10 points. A known TLR8 agonist was added as positive control and 1 μl of DMSO was added as negative control.
The cells were prepared as follows: The cells were removed from the incubator and growth medium was discarded. The cells were gently rinsed with pre-warmed 10 ml PBS for a T-150 flask. 12 ml pre-warmed growth medium was added, and the cells were detached by tapping the flask. Cell clumps were dissociated by gently pipetting up and down. The cells were counted. Single cell suspension was prepared at 200,000 cells per ml in growth medium and 200 μl of the cell suspension (40,000 cells per well) were immediately added to each well of the plate. The final DMSO concentration of each well was 0.5%.
The cells were cultured and treated with the compounds at 37° C., 5% CO2 for 24 h.
(§3) 20 μL of the supernatant of each well were added to 180 μL of QUANTI-Blue, and the plates were incubated at 37° C. for 1.5 hour. Optical density was measured using a spectrophotometer at 650 nm (OD data). Activivation was calculated by using the equation below: Activivation %=(Compound OD mean value−DMSO OD mean value)/(positive control OD mean value−DMSO OD mean value)×100
(§4) The data were analyzed using the GraphPad to get EC50 values and fitting dose response curves of the compounds.

Row | Compound | EC50 [nM]
1 | CCCN(CCC)C(=O)C1=Cc2ccc(-c3ccc4c(=S)n(Cc5ncccn5)ccc4c3)cc2N=C(N)C1 | < 100
2 | CCCN(CCC)C(=O)C1=Cc2ccc(-c3ccc4c(=O)n(CC)c5c(c4c3)CCC5)cc2N=C(N)C1 | 1000 to 10000
3 | CCCN(CCC)C(=O)C1=Cc2ccc(-c3ccc(C(=O)N4CCCC4)cc3)cc2N=C(N)C1 | 100 to 1000

More lines, now with the values ahead:

Row | EC50 [nM] | Compound
4 | < 100 | CCCN(CCC)C(=O)C1=Cc2ccc(-c3ccc4c(=S)n(Cc5nccn5C)ccc4c3)cc2N=C(N)C1
5 | 1000 to 10000 | CCCN(CCC)C(=O)C1=Cc2ccc(-c3ccc4c(=O)n(CC(C)(C)C)ccc4c3)cc2N=C(N)C1
6 | 100 to 1000 | CCCN(CCC)C(=O)C1=Cc2ccc(-c3ccc4c(=S)n(Cc5nc(OC)cc(OC)n5)ncc4c3)cc2N=C(N)C1
7 | 100 to 1000 | CCCN(CCC)C(=O)C1=Cc2ccc(-c3ccc4c(=S)n(Cc5nc(OC)cc(OC)n5)ccc4c3)cc2N=C(N)C1

Molecular target: TLR7 (Homo sapiens, UniProt Q9NYK1)
Experiment: TLR7 cell based assay (HEK-BLUE-hTLR7, SEAP reporter linked to NF-κB activation)
Conditions: read-out: TLR7 EC50; HEK-BLUE-hTLR7 cells, 24 hours treatment, SEAP/QUANTI-Blue readout
Description: as §1, with “(I) was” for “Iw as”, “TLR7” for “TLR8”, “TLR4,” for “TLR4, TLR7”
as §2
HEK-BLUE-hTLR7 cell line was purchased from InvivoGen. The cells were cultured in Dulbecco's Modified Eagle's Media containing 4.5 g/L […] (Sigma-Aldrich) and 10% FBS. The cells were cultured at 37° C., 95% humidity and 5% CO2. […]
The cells were prepared as follows. […] The cells were counted. […]
as §3, §4

Row | EC50 [nM] | Compound
8 | > 50000 | CCCN(CCC)C(=O)C1=Cc2ccc(-c3ccc4c(=S)n(Cc5nccn5C)ccc4c3)cc2N=C(N)C1
